# Measured affinities in a library of Ab-14 light chain variants

From the AlphaSeq antibody data of Engelhart et al. 2022 (doi:10.1038/s41597-022-01779-4), copy in the FLAb collection.

All variants were tested on one target, the spike HR2 peptide PDVDLGDISGINAS (SARS-CoV-2).

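The parent was found by panning a naive human phage display library on the peptide. AAYL50 was designed without a model: most single CDR substitutions and a random sample of double and triple ones. The scFvs were displayed on barcoded MATa yeast, the peptide on MATalpha yeast. Pairs that bind mate more often; barcode pairs of the diploids are counted by sequencing. A regression on co-assayed BCL2-family reference pairs converts the normalised counts of each replicate to an apparent Kd. Mating was done three times.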

Ab-14 is the parent antibody, in scFv form: VH, then a (GGGGS)3 linker, then VL. The heavy chain is unchanged in all variants.
VH: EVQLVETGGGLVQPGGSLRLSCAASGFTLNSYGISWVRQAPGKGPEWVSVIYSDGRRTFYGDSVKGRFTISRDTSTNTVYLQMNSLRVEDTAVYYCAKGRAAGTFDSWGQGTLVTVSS
VL: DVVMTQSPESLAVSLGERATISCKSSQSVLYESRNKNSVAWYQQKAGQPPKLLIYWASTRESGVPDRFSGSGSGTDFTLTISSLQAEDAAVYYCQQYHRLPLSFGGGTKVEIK

The parent's light chain CDRs are KSSQSVLYESRNKNSVA, WASTRES, QQYHRLPLS; each variant's own CDRs replace them letter for letter.
All variants listed here change L102 of the VL, counted from its first residue.
Each Kd is an estimate from the mating assay, the geometric mean of the replicates in which the pair was seen; lower is stronger.
"nd" means that the variant was in the library but no mating with the target was seen in any replicate; the authors take this as a sign of poor binding, and no number exists.
For reference, the parent read 4.4 nM as the reference entry and 48 nM as a member of this library.
Three control strains display no target. For library AAYL50, 18% of the pairings with them gave a signal, with a median of 15 µM and one signal in twenty below 970 nM, so weak values seen in few replicates may be background. For each scFv, signals with the empty controls are counted beside the result.

- KSSQSVLYESRNKNAVA, WASTRES, QQDHRLPYS = nd (0 of 3 replicates; controls 0 of 9)
- KSSQSHLYESRNKNSVA, WASTRES, KQYHRLPMS = 710 nM (1 of 3 replicates; controls 4 of 9)
- ESSQSVLYESRNKNSVA, WASTRES, QQYHTLPAS = nd (0 of 3 replicates; controls 2 of 9)
- KSSQSVLYISRNKNSVA, WASPRES, QQYHRLPPS = 1.4 mM (1 of 3 replicates; controls 4 of 9)
- KSSQSHLYESRNKNSVA, WWSTRES, QQYHRLPRS = nd (0 of 3 replicates; controls 1 of 9)
- KSSQSVLYESRNKNSVA, WASKRES, QQLHRLPHS = 490 nM (3 of 3 replicates; controls 2 of 9)
- KSSQSVLYESRNKNSVA, WASTRES, QQYHILPMG = nd (0 of 3 replicates; controls 1 of 9)
- KSSQGVLYESRQKNSVA, WASTRES, QQYHRLPSS = 70 nM (3 of 3 replicates; controls 1 of 9)
- ESSQSVLYESRNKNFVA, WASTRES, QQYHRLPQS = nd (0 of 3 replicates; controls 0 of 9)
- KSSQSVLYESRNKKSVA, WASTRES, QQQHRLPQS = nd (0 of 3 replicates; controls 0 of 9)
- YSSQSVLYESRVKNSVA, WASTRES, QQYHRLPRS = nd (0 of 3 replicates; controls 0 of 9)
- KSSHSVWYESRNKNSVA, WASTRES, QQYHRLPSS = 92 nM (3 of 3 replicates; controls 0 of 9)
- KSSQSQLYESRNKNSVA, WASTRES, QQYHMLPKS = 24 µM (1 of 3 replicates; controls 3 of 9)
- KSSQSVLYESRNKNSVA, WASTREG, HQYHRLPYS = nd (0 of 3 replicates; controls 0 of 9)
- KSSQSVLYKSRYKNSVA, WASTRES, QQYHRLPQS = nd (0 of 3 replicates; controls 2 of 9)
- KSSQSVLYESRNKNSVD, WASTRES, QCYHRLPGS = nd (0 of 3 replicates; controls 1 of 9)
- KSSQSVLYESRNKNSVA, WASTRES, NQYHRLPVG = nd (0 of 3 replicates; controls 3 of 9)
- KSSQSVLYESRNKNSVA, WASTRES, QQYHRLPNS = 820 µM (1 of 3 replicates; controls 4 of 9)
- KNSQSVLYESRNKNSVA, WASTRES, QQYHRLPEG = 66 nM (3 of 3 replicates; controls 0 of 9)
- KSSQSVLDESRNKNSVA, WASDRES, QQYHRLPTS = nd (0 of 3 replicates; controls 0 of 9)
- KSSQSVLYESRNKNSVA, WASTRES, QQYHRLPDS = 6.1 nM (3 of 3 replicates; controls 2 of 9)
- KSSQSWFYESRNKNSVA, WASTRES, QQYHRLPNS = nd (0 of 3 replicates; controls 0 of 9)
- KKSQSVLYESRNKNSVA, WASTRES, QQRHRLPWS = 17 µM (1 of 3 replicates; controls 3 of 9)
- KSSQSVLYESRNKNSVA, WASTIES, QQYHRFPCS = 68 µM (2 of 3 replicates; controls 4 of 9)
- KISQSVLYESRNKNSVQ, WASTRES, QQYHRLPYS = 21 µM (3 of 3 replicates; controls 1 of 9)
- KSSQSVLYEHRNKNSVA, WASTKES, QQYHRLPWS = 12 µM (2 of 3 replicates; controls 4 of 9)
- KSSQSVLYESRNKNSVA, WADTREM, QQYHRLPCS = 2.8 nM (3 of 3 replicates; controls 3 of 9)
- KSSQSVLYESDNMNSVA, WASTRES, QQYHRLPES = 3.6 nM (3 of 3 replicates; controls 5 of 9)
- KSSQSVLYESRNKNSVA, WASDRES, QQKHRLPQS = 2.6 µM (2 of 3 replicates; controls 1 of 9)
- KKSQSVLYESRYKNSVA, WASTRES, QQYHRLPRS = 1.2 µM (1 of 3 replicates; controls 0 of 9)

Extract of 2 entries:

* KSSQSVLYEHRNKNSVA, WASTKES, QQYHRLPWS: 12 µM (2 of 3 replicates; controls 4 of 9)
* KSSQSVLYESRNKNSVA, WASTRES, QQYHRLPNS: 820 µM (1 of 3 replicates; controls 4 of 9)